## Curated experimental data: water solubility values

Solubility in water is on a log10 molar scale (set defined at 25 °C).

Listed for C=C(C)C(=O)OCc1ccccc1: log solubility -2.968 (log10 mol/L).
Listed for CCOc1ccc(NC(=O)c2cc3ccccc3c(N=Nc3cc(Cl)c(Cl)cc3Cl)c2O)cc1: log solubility -8.058 (log10 mol/L).
Listed for CCCC(=O)OCCC(C)C: log solubility -2.933 (log10 mol/L).
Listed for CN(C)c1ccc(C(O)(c2ccc(N(C)C)cc2)c2ccc(Nc3ccccc3)c3ccccc23)cc1: log solubility -6.989 (log10 mol/L).
Listed for CCCC(=O)OCOC(=O)c1ccccc1OC(C)=O: log solubility -2.904 (log10 mol/L).
Listed for CC1=CCC(CCC(C)CO)C1(C)C (stereo not drawn): log solubility -3.843 (log10 mol/L).
Listed for Cl.Nc1c2ccccc2nc2ccccc12: log solubility -2.102 (log10 mol/L).
Listed for CC(=O)OCC(CCn1cnc2cnc(N)nc21)COC(C)=O: log solubility -2.386 (log10 mol/L).
Listed for CCOC(=O)C1(OC(=O)Cc2ccc(Cl)cc2Cl)CCCCC1: log solubility -5.277 (log10 mol/L).
Listed for O=C(CC(C(=O)OC1CCCCC1)S(=O)(=O)[O-])OC1CCCCC1.[Na+] (stereo not drawn): log solubility -0.506 (log10 mol/L).
Listed for CCC[C@H]1CC[C@H]([C@H]2CC[C@H](C(=O)O)CC2)CC1: log solubility -5.323 (log10 mol/L).
Listed for COC(=O)c1ccc2cc(C(=O)OC)ccc2c1: log solubility -6.257 (log10 mol/L).
Listed for OCC1CCC(CO)CC1 (stereo not drawn): log solubility 0.805 (log10 mol/L).
Listed for OCCN1CCN(CCC=C2c3ccccc3Sc3ccc(C(F)(F)F)cc32)CC1: log solubility -5.161 (log10 mol/L).
Listed for O=c1c(-c2ccc(O)c(O)c2)coc2cc(O[C@@H]3O[C@H](CO)[C@@H](O)C(O)[C@H]3O)cc(O)c12 (some centres not stated): log solubility -3.652 (log10 mol/L).
Listed for CCC(=O)NCC[C@@H]1CCc2ccc3c(c21)CCO3: log solubility -4.199 (log10 mol/L).
Listed for CCCCCCCCC(=O)OCC(C)(C)COC(=O)CCCCCCCC: log solubility -8.109 (log10 mol/L).
Listed for Clc1ccccc1-c1cc(Cl)c(Cl)c(Cl)c1: log solubility -6.907 (log10 mol/L).
Listed for Oc1nc2cncnc2nc1O: log solubility -2.693 (log10 mol/L).
Listed for CCC[C@@H]1C[C@@H](C(=O)N[C@@H]([C@H]2O[C@H](SC)[C@H](O)[C@@H](O)[C@H]2O)[C@@H](C)O)N(C)C1: log solubility -2.64 (log10 mol/L).
Listed for CCN(CC)c1ccc(N=Nc2c(Br)cc([N+](=O)[O-])cc2[N+](=O)[O-])c(NC(C)=O)c1: log solubility -7.38 (log10 mol/L).
Listed for C/C(=C\C1CCCCC1)CC(C)C=O (stereo partly drawn): log solubility -4.359 (log10 mol/L).
Listed for Cc1nc2ccc(CN(C)c3ccc(C(=O)N[C@@H](CCC(=O)O)C(=O)O)s3)cc2c(=O)[nH]1: log solubility -4.404 (log10 mol/L).
Listed for O=P(O)(O)C(O)(Cn1ccnc1)P(=O)(O)O: log solubility -1.92 (log10 mol/L).
Listed for COC(=O)c1nccnc1N: log solubility -1.642 (log10 mol/L).
Listed for Nc1ccc2cc(S(=O)(=O)[O-])cc(O)c2c1/N=N/c1ccccc1S(=O)(=O)c1ccccc1.[Na+]: log solubility -2.089 (log10 mol/L).
Listed for CC(C(=O)O)c1ccc(C(=O)c2cccs2)cc1 (stereo not drawn): log solubility -3.79 (log10 mol/L).
Listed for Cc1ccccc1Br: log solubility -2.23 (log10 mol/L).
Listed for CC1=NS(=O)(=O)c2ccccc21: log solubility -3.194 (log10 mol/L).
Listed for CCN(CCC#N)c1ccc(N=Nc2c(Br)cc([N+](=O)[O-])cc2Br)cc1: log solubility -4.381 (log10 mol/L).
Listed for O=C(O)c1cccc2ccccc12: log solubility -3.3 (log10 mol/L).
Listed for CC(=O)OCCN(CCOC(C)=O)c1ccc(/N=N/c2ccc([N+](=O)[O-])cc2C#N)cc1: log solubility -7.3 (log10 mol/L).
Listed for CNC(=O)c1cc(Oc2ccc(N)cc2)ccn1: log solubility -2.394 (log10 mol/L).
Listed for CC(C)c1ccc(CCO)cc1: log solubility -2.261 (log10 mol/L).
Listed for Nc1ncnc2c1ncn2[C@@H]1O[C@H](COP(=O)(O)O)[C@@H](OP(=O)(O)O)[C@H]1O: log solubility 0.158 (log10 mol/L).
Listed for CC(C)C[C@H](N)C(=O)N[C@H](CSSC[C@@H](NC(=O)[C@@H](N)CC(C)C)C(=O)O)C(=O)O: log solubility -0.479 (log10 mol/L).
Listed for O=C(O)[C@@H](O)Cc1c[nH]c2ccccc12: log solubility -1.082 (log10 mol/L).
Listed for CCCCCCCCCCCCCCCCCC(=O)OCC(COC(=O)CCCCCCCCCCCCCCCCC)OC(=O)CCCCCCCCCCCCCCCCC: log solubility -5.473 (log10 mol/L).

Extract of 4 entries:

| structure (SMILES) | log solubility (log10 mol/L) |
|---|---|
| CCOC(=O)C1(OC(=O)Cc2ccc(Cl)cc2Cl)CCCCC1 | -5.277 |
| C/C(=C\C1CCCCC1)CC(C)C=O (stereo partly drawn) | -4.359 |
| Cc1ccccc1Br | -2.23 |
| CCCC(=O)OCOC(=O)c1ccccc1OC(C)=O | -2.904 |

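OPERA's authors assembled the values from existing databases and did not measure them anew. A listed value is a point estimate from one report or more. Conditions of the individual experiments are not part of the data. Where a salt, mixture or single isomer is drawn, the source does not say that exactly this form was tested. Some entries may be limits or estimates that an upstream database listed as plain numbers.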

Values as listed in the OPERA 2.9 repository of K. Mansouri.